Only a part is listed here, and it is no random draw. Some of these compounds have results that are not shown, active ones among them. Active and inactive are the calls of the source.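 Rule for the calls: active = inhibition above the campaign mean of all tested compounds plus 3 SD (cut at about 14% in these data); inactive = the rest.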
biological target: Serine hydrolase RBBP9 (Homo sapiens) (UniProt O75884); assay: human RBBP9 inhibitors, primary screen, biochemical, fluorescence polarization, FP-Rh probe, HTS (AID 1515); settings: recombinant RBBP9, FP-Rh probe fluorescence polarization; at 7.94 µM; hits give high values;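 note: plate controls were DMSO wells with RBBP9 for no effect and wells lacking RBBP9 protein for full effect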

Protein sequences, listed by entry. Tags and fused reporters are not part of them.
UniProt O75884, whole entry: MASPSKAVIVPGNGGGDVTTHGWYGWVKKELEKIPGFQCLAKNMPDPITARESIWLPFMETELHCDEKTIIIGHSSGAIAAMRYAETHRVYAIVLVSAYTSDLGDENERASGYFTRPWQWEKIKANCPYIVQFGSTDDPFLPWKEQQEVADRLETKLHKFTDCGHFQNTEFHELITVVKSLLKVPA

Row | Structure (SMILES) | inhibition
1 | COc1cccc(C(=O)NCC2(N3CCCCC3)CCCCC2)c1 | inactive: -4.52%
2 | O=C(OC1CN2CCC1CC2)C(CO)(c1ccccc1)c1ccccc1 (stereo unspecified) | inactive: -4.06%
3 | CN(C)c1cccc(C(=O)NCC2(N(C)C)CCCCC2)c1 | inactive: -6.87%
4 | COc1ccc(Br)c(C(=O)NCC2(N3CCCCC3)CCCCC2)c1 | inactive: 2.17%
5 | O=C(NCC1(N2CCCCC2)CCCCC1)c1cc([N+](=O)[O-])ccc1Cl | inactive: 8.98%
6 | CC(C)N1C(=O)CC2(CCN(CCOC(=O)C(O)(c3ccccc3)c3ccccc3)CC2)C1=O | inactive: 1.76%
7 | CCN(CC)CC(C)C(C)OC(=O)C(O)(c1ccccc1)c1ccccc1 (stereo unspecified) | inactive: 5.87%
8 | Cc1ccccc1C(=O)NCC1(N2CCCCC2)CCCCC1 | inactive: -9.33%
9 | CN(C)C1CCCC1OC(=O)C(O)(c1ccccc1)c1ccccc1 (stereo unspecified) | inactive: -8.72%
10 | CCN1CCCC(OC(=O)C2(O)c3ccccc3C=Cc3ccccc32)C1 (stereo unspecified) | inactive: 4.81%
11 | C=CCN1CCN(CCOC(=O)C(O)(c2ccccc2)c2ccccc2)CC1 | inactive: -4.85%
